This is one part of the list.
T1: LIN28A (human?, UniProt Q9H9Z2 1-209)
T1 sequence: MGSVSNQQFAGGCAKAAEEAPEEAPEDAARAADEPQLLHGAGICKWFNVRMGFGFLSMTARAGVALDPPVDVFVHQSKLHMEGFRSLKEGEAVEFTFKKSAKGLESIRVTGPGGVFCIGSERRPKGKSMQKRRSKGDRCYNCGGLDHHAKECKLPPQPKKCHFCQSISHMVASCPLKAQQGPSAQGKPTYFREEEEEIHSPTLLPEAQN

T2: CIRBP (Homo sapiens, UniProt Q14011 1-172)
T2 sequence: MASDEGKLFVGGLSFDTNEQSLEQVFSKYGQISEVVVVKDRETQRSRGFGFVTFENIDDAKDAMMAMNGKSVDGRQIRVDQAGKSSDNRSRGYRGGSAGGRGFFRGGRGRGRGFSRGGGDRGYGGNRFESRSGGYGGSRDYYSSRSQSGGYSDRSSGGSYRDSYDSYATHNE

T3: DHX36 (Homo sapiens, UniProt Q9H2U1 1-1008)
T3 sequence: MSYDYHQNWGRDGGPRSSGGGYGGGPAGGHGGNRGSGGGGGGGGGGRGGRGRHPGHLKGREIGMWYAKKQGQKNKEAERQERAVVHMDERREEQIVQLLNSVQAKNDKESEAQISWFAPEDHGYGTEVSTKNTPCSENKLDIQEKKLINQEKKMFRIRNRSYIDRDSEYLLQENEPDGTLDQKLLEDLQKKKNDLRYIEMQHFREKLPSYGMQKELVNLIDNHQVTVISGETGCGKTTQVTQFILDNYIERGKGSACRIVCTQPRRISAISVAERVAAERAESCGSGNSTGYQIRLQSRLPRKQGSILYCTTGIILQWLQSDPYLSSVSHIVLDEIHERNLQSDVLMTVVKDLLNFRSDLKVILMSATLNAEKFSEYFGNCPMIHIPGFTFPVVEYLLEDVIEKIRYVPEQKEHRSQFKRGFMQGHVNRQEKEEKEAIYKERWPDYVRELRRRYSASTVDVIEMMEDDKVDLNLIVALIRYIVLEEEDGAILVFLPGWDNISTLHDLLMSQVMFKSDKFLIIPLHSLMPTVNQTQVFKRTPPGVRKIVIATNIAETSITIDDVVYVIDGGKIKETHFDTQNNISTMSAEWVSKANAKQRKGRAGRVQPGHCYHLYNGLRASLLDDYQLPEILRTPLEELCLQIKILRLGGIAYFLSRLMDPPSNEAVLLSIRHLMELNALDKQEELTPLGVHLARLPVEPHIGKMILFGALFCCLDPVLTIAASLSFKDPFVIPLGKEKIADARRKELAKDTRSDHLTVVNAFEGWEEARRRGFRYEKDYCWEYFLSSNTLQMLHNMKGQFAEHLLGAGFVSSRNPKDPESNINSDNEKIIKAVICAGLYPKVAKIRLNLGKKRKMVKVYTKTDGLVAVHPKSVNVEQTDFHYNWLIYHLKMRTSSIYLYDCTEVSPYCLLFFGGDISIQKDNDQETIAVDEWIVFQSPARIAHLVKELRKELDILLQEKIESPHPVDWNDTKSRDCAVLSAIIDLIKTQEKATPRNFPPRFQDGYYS

B1: hsa-mir-3147 (structured_RNA)
RNA: GGGAAUUUGACGUAGAGGCCAGACUUGGGGUGUACGAAGUUUCAGCGUGACGCCGCGAAGUGCACGCUGAAGCUUCGUGCAC
B2: hsa-mir-6842 (structured_RNA)
RNA: GGGACGGGUCAAACGAAAUAUUCAAGAGGGUGUACGAAGUUUCAGCCCAAGGCUCUGGGGUCUCACCCUUGGGCUGAAGCUUCGUGCAC
B3: hsa-mir-6888 (structured_RNA)
RNA: GGGAGUAUCGCACGUAUAAACACCGGAAGGUGUACGAAGUUUCAGCAGAUCUGUCUCUGAUUGUUUCCAAGAUCUGCUGAAGCUUCGUGCAC
B4: hsa-mir-4747 (structured_RNA)
RNA: GGGAAGCUGAUUGUCCAAGCCUCUGAUCGGUGUACGAAGUUUCAGCUCUUAGCACGGGGUCUAAGGGCUGAAGCUUCGUGCAC
B5: hsa-mir-6076 (structured_RNA)
RNA: GGGGAACGAGGAAAGAAUGCAUUGUAGCGGUGUACGAAGUUUCAGCGUGGAGGUAGGCGAGAGUAAUAUAAUUUCUCCAGGAGAACAUCUGAGAGGGGAAGUUGCUUUCCUGCCCUGGCCCUUUCACGCUGAAGCUUCGUGCAC
B6: hsa-mir-300 (structured_RNA)
RNA: GGGAGGUGGCCCCAACACCCCUAAUAUGGGUGUACGAAGUUUCAGCCACGCAUUUGCUUUACUUGCAAUGAUUAUAGCUGAAGCUUCGUGCAC
B7: hsa-mir-142 (structured_RNA)
RNA: GGGAACAUGCCCAUGGCCUAUAGUCAGCGGUGUACGAAGUUUCAGCUACUAACAGCACUGGAGGGUGUAGCUGAAGCUUCGUGCAC
B8: hsa-mir-6778 (structured_RNA)
RNA: GGGAGCGUCUGUAGGCGUAUUUCAAGCAGGUGUACGAAGUUUCAGCGGCAGGUGUGGUUGGAGGAAGCAGCCUGAACCUGCCGCUGAAGCUUCGUGCAC
B9: hsa-mir-3156-3 (structured_RNA)
RNA: GGGACAAGGGUAAGCAUGAGCAUCGUCUGGUGUACGAAGUUUCAGCGACACUUUCACUAUAUAUAGUGGCGCUGAAGCUUCGUGCAC
B10: hsa-mir-4499 (structured_RNA)
RNA: GGGAACUAAUUAGACCAUACCGCACGGGGGUGUACGAAGUUUCAGCGGGAACUGGUGAGUUGUACAUAGAAAUGCUUUCUAACUCCGCUGAAGCUUCGUGCAC
B11: hsa-mir-3120 (structured_RNA)
RNA: GGGAAAGCCCAAGGACGGAGUGUAAUAUGGUGUACGAAGUUUCAGCUGUACAGGUGAGCGGAUGUUCUGCACAGCUGAAGCUUCGUGCAC

The binders below were run against U1A (Homo sapiens, UniProt P09012) (assay: FOREST: bead pull-down of RNA structure library v1, barcode microarray; U1A/LIN28A: 20 mM HEPES pH 7.5, 80 mM KCl, 20 mM NaCl, 10% glycerol, 2 mM DTT, 0.1 ug/uL BSA, 4 C; BG4/CIRBP/DHX36: 10 mM Tris-HCl pH 7.5, 100 mM KCl (or LiCl),; high values mean tight binding).

Q: B1 was tested. Which binding signal did it give?
A: Its binding signal is 0.679 z-score.

Q: Which binding signal does the source give for B2 here?
A: Its binding signal is 0.678 z-score.

Q: B3 was tested. Which binding signal did it give?
A: Its binding signal is 0.677 z-score.

Q: For B4, which binding signal is on record?
A: Its binding signal is 0.676 z-score.

Q: B5 was tested. Which binding signal did it give?
A: The binding signal was 0.669 z-score.

Q: With B6 as the binder, how does the binding signal read?
A: Its binding signal is 0.669 z-score.

Q: B7 was tested. Which binding signal did it give?
A: The binding signal was 2.23 z-score.

Q: Which binding signal does the source give for B8 here?
A: Its binding signal is 0.662 z-score.

Q: B9 was tested. Which binding signal did it give?
A: Its binding signal is 0.66 z-score.

Q: B10 was tested. Which binding signal did it give?
A: The binding signal was 0.66 z-score.

Q: B11 was tested. Which binding signal did it give?
A: Its binding signal is 0.657 z-score.

What follows are binders tested against T1, LIN28A in the same assay as above.

Q: With B1 as the binder, how does the binding signal read?
A: Its binding signal is 0.442 z-score.

Q: For B2, which binding signal is on record?
A: Its binding signal is 0.0967 z-score.

Q: Which binding signal does the source give for B3 here?
A: Its binding signal is -0.119 z-score.

Q: B4 was tested. Which binding signal did it give?
A: The binding signal was -1.2 z-score.

Q: With B5 as the binder, how does the binding signal read?
A: The binding signal was 0.936 z-score.

Q: With B6 as the binder, how does the binding signal read?
A: Its binding signal is -0.877 z-score.

Q: Which binding signal does the source give for B7 here?
A: The binding signal was 0.272 z-score.

Q: With B8 as the binder, how does the binding signal read?
A: Its binding signal is -0.599 z-score.

Q: With B9 as the binder, how does the binding signal read?
A: Its binding signal is -0.581 z-score.

Q: With B10 as the binder, how does the binding signal read?
A: The binding signal was -0.503 z-score.

Q: For B11, which binding signal is on record?
A: Its binding signal is -0.0106 z-score.

What follows are binders tested against T2, CIRBP in the same assay as above.

Q: For B1, which binding signal is on record?
A: The binding signal was 0.984 z-score.

Q: B2 was tested. Which binding signal did it give?
A: Its binding signal is -0.317 z-score.

Q: For B3, which binding signal is on record?
A: Its binding signal is 0.155 z-score.

Q: With B4 as the binder, how does the binding signal read?
A: The binding signal was -0.633 z-score.

Q: B5 was tested. Which binding signal did it give?
A: The binding signal was -1.94 z-score.

Q: Which binding signal does the source give for B6 here?
A: Its binding signal is -2.15 z-score.

Q: How did the binding signal turn out when B7 was run?
A: Its binding signal is -0.388 z-score.

Q: Which binding signal does the source give for B8 here?
A: Its binding signal is 0.349 z-score.

Q: For B9, which binding signal is on record?
A: Its binding signal is -0.0634 z-score.

Q: How did the binding signal turn out when B10 was run?
A: The binding signal was -0.736 z-score.

Q: Which binding signal does the source give for B11 here?
A: Its binding signal is -0.679 z-score.

Each binder was assayed against T3, DHX36 in the same assay as above.

Q: Which binding signal does the source give for B1 here?
A: Its binding signal is -0.0192 z-score.

Q: B2 was tested. Which binding signal did it give?
A: The binding signal was -0.0425 z-score.

Q: With B3 as the binder, how does the binding signal read?
A: Its binding signal is 0.968 z-score.

Q: With B4 as the binder, how does the binding signal read?
A: Its binding signal is -0.445 z-score.

Q: With B5 as the binder, how does the binding signal read?
A: The binding signal was 2.27 z-score.

Q: How did the binding signal turn out when B6 was run?
A: Its binding signal is -1.55 z-score.

Q: For B7, which binding signal is on record?
A: The binding signal was -0.362 z-score.

Q: With B8 as the binder, how does the binding signal read?
A: Its binding signal is 2.13 z-score.

Q: How did the binding signal turn out when B9 was run?
A: The binding signal was -0.571 z-score.

Q: Which binding signal does the source give for B10 here?
A: Its binding signal is -0.51 z-score.

Q: B11 was tested. Which binding signal did it give?
A: Its binding signal is -0.229 z-score.

Source: paper PMC7723054
